Values after ≈ are worked out from the molar mass of the structure shown.
Tested on: not listed separately
Test: […] solubility of the compound in water after 24 hrs by HPLC analysis
Format: physicochemical
Conditions: buffer

Molecule `CC(C)(C)c1cc(C(=O)/C(C#N)=N/Nc2cc(Cl)cc(C(F)(F)F)c2)no1` has a solubility of 50.4 µM (≈ 20.1 µg/mL).

Target: T1, Rap guanine nucleotide exchange factor 4 (Mus musculus) (UniProt Q9EQZ6)
T1 sequence (whole entry): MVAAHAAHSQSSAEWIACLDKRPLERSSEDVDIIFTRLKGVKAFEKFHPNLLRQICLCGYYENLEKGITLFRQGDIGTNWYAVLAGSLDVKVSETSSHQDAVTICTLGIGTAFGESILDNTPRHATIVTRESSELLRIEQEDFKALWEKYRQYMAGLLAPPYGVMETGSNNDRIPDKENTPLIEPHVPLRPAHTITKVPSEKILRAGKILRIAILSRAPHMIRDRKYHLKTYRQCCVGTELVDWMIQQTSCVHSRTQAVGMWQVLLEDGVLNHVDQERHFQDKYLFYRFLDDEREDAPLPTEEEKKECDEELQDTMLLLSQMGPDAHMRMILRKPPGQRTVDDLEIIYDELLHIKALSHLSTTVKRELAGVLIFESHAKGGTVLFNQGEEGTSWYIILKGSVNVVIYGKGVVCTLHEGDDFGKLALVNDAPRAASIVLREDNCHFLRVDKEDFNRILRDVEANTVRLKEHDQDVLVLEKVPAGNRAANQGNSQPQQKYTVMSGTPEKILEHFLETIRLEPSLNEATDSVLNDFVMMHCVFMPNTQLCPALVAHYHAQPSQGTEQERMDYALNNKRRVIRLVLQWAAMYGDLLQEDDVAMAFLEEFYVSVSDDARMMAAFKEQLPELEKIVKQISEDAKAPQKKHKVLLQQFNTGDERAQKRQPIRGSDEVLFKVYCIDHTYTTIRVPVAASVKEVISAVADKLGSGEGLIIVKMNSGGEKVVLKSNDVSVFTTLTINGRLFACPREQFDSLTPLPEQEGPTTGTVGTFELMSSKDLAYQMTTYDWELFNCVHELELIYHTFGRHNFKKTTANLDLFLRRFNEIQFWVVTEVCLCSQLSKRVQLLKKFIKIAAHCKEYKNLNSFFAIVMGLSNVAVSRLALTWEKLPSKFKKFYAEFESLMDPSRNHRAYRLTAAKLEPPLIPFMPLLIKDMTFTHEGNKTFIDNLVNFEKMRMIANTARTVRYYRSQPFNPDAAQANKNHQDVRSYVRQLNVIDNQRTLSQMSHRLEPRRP
Test: Ratio of cAMP IC50 to compound IC50 for displacement of 8-NBD-cAMP from mouse recombinant EPAC2 by fluorescence assay
Conditions: not given

Going from `CC(C)(C)c1cc(C(=O)/C(C#N)=N/Nc2cc(Cl)c(Cl)c(Cl)c2)no1` to `CC(C)(C)c1cc(C(=O)/C(C#N)=N/Nc2cc(Cl)cc(C(F)(F)F)c2)no1`, the Ratio IC50 falls from 35.6 to 20.

Going from `CCOC(=O)c1cccc(N/N=C(\C#N)C(=O)c2cc(C(C)(C)C)on2)c1` to `CC(C)(C)c1cc(C(=O)/C(C#N)=N/Nc2cccc(C#N)c2)no1`, the Ratio IC50 rises from 0.4 to 0.5.

First: CC(C)(C)c1cc(C(=O)/C(C#N)=N/Nc2cc(C(F)(F)F)cc(C(F)(F)F)c2)no1
Second: N#C/C(=N\Nc1cccc(Cl)c1)C(=O)c1cc(C2CC2)on1
The Ratio IC50 of the first is higher: 5 for the first, 0.5 for the second.
